{"sequences": {"note": "Amino acid sequences for entries named in this document (tags omitted). Residues count along the entry.", "UniProt O60674, 536-812 W659A/W777A/F794H": "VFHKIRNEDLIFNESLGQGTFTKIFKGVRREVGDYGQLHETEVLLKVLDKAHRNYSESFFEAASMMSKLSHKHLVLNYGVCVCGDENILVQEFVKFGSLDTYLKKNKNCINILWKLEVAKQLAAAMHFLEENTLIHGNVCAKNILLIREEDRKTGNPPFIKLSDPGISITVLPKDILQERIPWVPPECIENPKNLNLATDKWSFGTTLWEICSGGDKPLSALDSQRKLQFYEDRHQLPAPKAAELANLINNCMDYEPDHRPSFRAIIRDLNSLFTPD"}, "source": "patent US20250034112A1", "about": "“IMPROVED SELECTIVE JAK2 INHIBITORS AND METHODS OF USE” (Yale University, priority 2021, published 2025)"}
{"target": "WT JAK2 JH2 (Homo sapiens (Human), UniProt O60674, F794H/W659A/W777A)", "experiment": "Competitive fluorescence polarization (FP) binding assay, WT JAK2 JH2", "units": {"Kd": "µM"}}
{"smiles": "N#Cc1ccc(Nc2nc(N)nc(Oc3c(F)cccc3F)n2)cc1N", "note": "[Compound 33r]", "Kd": "123 ± 22"}
{"smiles": "COc1ccc(F)c(Oc2nc(N)nc(Nc3ccc(C#N)c(N)c3)n2)c1F", "note": "[Compound 33s]", "Kd": "54.7 ± 12.2"}
{"smiles": "N#Cc1ccc(Nc2nc(N)nc(Oc3ccc4[nH]ccc4c3)n2)cc1N", "note": "[Compound 33t]", "Kd": "23.2 ± 1.4"}
